PubChem BioAssay (NCI)
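Five compound concentrations were applied to cells in 96-well plates for 48 hours; endpoints were derived by simple linear interpolation of the resulting dose-response curve. TGI denotes the concentration required for complete inhibition of growth.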

Assays:
Test in all cases: growth of human tumour cells (NCI), 48 h
786-0 renal = tested on: 786-0 renal
A549 NSCLC = tested on: A549 NSCLC
ACHN renal = tested on: ACHN renal
BT-549 breast = tested on: BT-549 breast
CAKI-1 renal = tested on: CAKI-1 renal
CCRF-CEM leukemia = tested on: CCRF-CEM leukemia
COLO 205 colon = tested on: COLO 205 colon
DU-145 prostate = tested on: DU-145 prostate
EKVX NSCLC = tested on: EKVX NSCLC
HCC-2998 colon = tested on: HCC-2998 colon
HCT-116 colon = tested on: HCT-116 colon
HL-60(TB) leukemia = tested on: HL-60(TB) leukemia
HOP-62 NSCLC = tested on: HOP-62 NSCLC
HOP-92 NSCLC = tested on: HOP-92 NSCLC
HS 578T breast = tested on: HS 578T breast
HT29 colon = tested on: HT29 colon
IGROV1 ovarian = tested on: IGROV1 ovarian
K-562 leukemia = tested on: K-562 leukemia
KM12 colon = tested on: KM12 colon
LOX IMVI melanoma = tested on: LOX IMVI melanoma
M14 melanoma = tested on: M14 melanoma
MALME-3M melanoma = tested on: MALME-3M melanoma
MCF7 breast = tested on: MCF7 breast
MDA-MB-231 breast = tested on: MDA-MB-231 breast
MDA-MB-435 = tested on: MDA-MB-435
MDA-N = tested on: MDA-N
MOLT-4 leukemia = tested on: MOLT-4 leukemia
NCI-H226 lung = tested on: NCI-H226 lung
NCI-H23 lung = tested on: NCI-H23 lung
NCI-H460 lung = tested on: NCI-H460 lung
NCI/ADR-RES ovarian = tested on: NCI/ADR-RES ovarian
OVCAR-3 ovarian = tested on: OVCAR-3 ovarian
OVCAR-4 ovarian = tested on: OVCAR-4 ovarian
OVCAR-5 ovarian = tested on: OVCAR-5 ovarian
OVCAR-8 ovarian = tested on: OVCAR-8 ovarian
PC-3 prostate = tested on: PC-3 prostate
RPMI-8226 leukemia = tested on: RPMI-8226 leukemia
RXF 393 renal = tested on: RXF 393 renal
SF-268 CNS = tested on: SF-268 CNS
SF-295 CNS = tested on: SF-295 CNS
SF-539 CNS = tested on: SF-539 CNS
SK-MEL-2 melanoma = tested on: SK-MEL-2 melanoma
SK-MEL-28 melanoma = tested on: SK-MEL-28 melanoma
SK-MEL-5 melanoma = tested on: SK-MEL-5 melanoma
SK-OV-3 ovarian = tested on: SK-OV-3 ovarian
SN12C renal = tested on: SN12C renal
SNB-19 CNS = tested on: SNB-19 CNS
SNB-75 CNS = tested on: SNB-75 CNS
SR leukemia = tested on: SR leukemia
SW-620 colon = tested on: SW-620 colon
T-47D breast = tested on: T-47D breast
TK-10 renal = tested on: TK-10 renal
U251 CNS = tested on: U251 CNS
UACC-257 melanoma = tested on: UACC-257 melanoma
UACC-62 melanoma = tested on: UACC-62 melanoma
UO-31 renal = tested on: UO-31 renal

Measured: TGI

CCOC1=NC(C(F)(F)F)(C(F)(F)F)N=C(NC2=NP(=O)(OCC)C(C)(C)N2C)O1 (stereo unspecified)
> 100 µM: 786-0 renal | A549 NSCLC | ACHN renal | BT-549 breast | CAKI-1 renal | CCRF-CEM leukemia | COLO 205 colon | DU-145 prostate | EKVX NSCLC | HCC-2998 colon | HCT-116 colon | HL-60(TB) leukemia | HOP-62 NSCLC | HOP-92 NSCLC | HS 578T breast | HT29 colon | IGROV1 ovarian | K-562 leukemia | KM12 colon | LOX IMVI melanoma | M14 melanoma | MALME-3M melanoma | MCF7 breast | MDA-MB-231 breast | MDA-MB-435 | MDA-N | MOLT-4 leukemia | NCI-H226 lung | NCI-H23 lung | NCI-H460 lung | NCI/ADR-RES ovarian | OVCAR-3 ovarian | OVCAR-4 ovarian | OVCAR-5 ovarian | OVCAR-8 ovarian | PC-3 prostate | RPMI-8226 leukemia | RXF 393 renal | SF-268 CNS | SF-295 CNS | SF-539 CNS | SK-MEL-2 melanoma | SK-MEL-28 melanoma | SK-MEL-5 melanoma | SK-OV-3 ovarian | SN12C renal | SNB-19 CNS | SNB-75 CNS | SR leukemia | SW-620 colon | T-47D breast | TK-10 renal | U251 CNS | UACC-257 melanoma | UACC-62 melanoma | UO-31 renal
